{
  "source": "patent US7964736B2",
  "about": "“Phosphagen synthesis” (Nour Heart, Inc., priority 2004, dated 2011)",
  "key": {"[1]": {"test_system": "heart (cardioprotection)", "assay": "Dose-response study of cardioprotective effect", "format": "in vivo"}, "[2]": {"test_system": "rat hearts, normothermic cardioplegic arrest", "conditions": "ischemia time 40 min; cited from earlier work"}, "[3]": {"conditions": "compared with CrP; cited from earlier work"}, "[4]": {"test_system": "rat hearts, cold storage", "conditions": "cited from earlier work"}, "[5]": {"test_system": "rat hearts, hypothermic cardioplegic arrest", "conditions": "cited from earlier work"}},
  "note": "Like-named read-outs stand apart in the source and are kept apart here.",
  "data": [
    {"smiles": "N=C1N(CC(=O)O)CCN1P(=O)(O)O", "values": [
      {"measurement": "cardioprotective effect", "setting": "[1]; 300 mg/kg", "result": "not"},
      {"measurement": "cardioprotective effect", "setting": "[1]; 484 mg/kg", "result": "strong cardioprotective effect"},
      {"measurement": "cardioprotective effect", "setting": "[1]; 667 mg/kg", "result": "strong cardioprotective effect"},
      {"measurement": "cardioprotective effect", "setting": "[1]; 1000 mg/kg", "result": "strong cardioprotective effect"},
      {"measurement": "results (restoration of cardiac function)", "setting": "[2]", "result": "Restoration"},
      {"measurement": "Gibbs standard free energy of hydrolysis", "setting": "[3]", "result": "substantially less negative"},
      {"measurement": "functional recovery during reperfusion", "setting": "[4]; after 6 hours of cold storage", "result": "improved functional recovery"},
      {"measurement": "increase in heart weight", "setting": "[4]; compared to control untreated hearts", "result": "significantly reduced"},
      {"measurement": "leakage of creatine kinase (CK) during reperfusion", "setting": "[4]; rat, in vivo", "result": "no significant leakage"},
      {"measurement": "myocardial cell injury, as measured by electron microscopy", "setting": "[4]; treated versus control group", "result": "no detectable difference"},
      {"measurement": "results (restoration of cardiac function)", "setting": "[5]; ischemia time 2.5 hrs", "result": "Restoration"},
      {"measurement": "results (restoration of cardiac function)", "setting": "[5]; ischemia time 6 hrs", "result": "Restoration"}
    ]}
  ]
}
